This assay has as its target T1, human serotonin 5-HT2C receptor (Homo sapiens, UniProt P28335).
T1 construct: expressed in transfected cells; host or cells: CHO-K1
Nature of the assay: Radioligand binding assay, human 5-HT2C receptors ([3H]Mesulergine). Particulars: value given in assay description.

The chains behind the UniProt entries cited, without tags or fusion partners. Residues count along the entry.
UniProt P28335, 33-458: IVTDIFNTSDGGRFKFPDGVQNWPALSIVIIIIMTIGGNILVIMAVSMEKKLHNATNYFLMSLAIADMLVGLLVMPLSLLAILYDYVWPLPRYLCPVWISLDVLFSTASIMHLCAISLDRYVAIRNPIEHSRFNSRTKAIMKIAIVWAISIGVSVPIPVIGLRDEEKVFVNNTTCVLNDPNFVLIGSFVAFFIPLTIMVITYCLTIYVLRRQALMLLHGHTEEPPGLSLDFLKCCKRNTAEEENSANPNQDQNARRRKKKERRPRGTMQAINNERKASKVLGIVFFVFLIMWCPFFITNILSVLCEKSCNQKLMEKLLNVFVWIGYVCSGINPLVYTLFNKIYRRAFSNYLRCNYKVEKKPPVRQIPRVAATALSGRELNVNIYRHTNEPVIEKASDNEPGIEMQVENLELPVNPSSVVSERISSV

One compound from patent US7087623B2, “Thiazole and other heterocyclic ligands for mammalian dopamine, muscarinic and serotonin receptors and transporters, and methods of use thereof” (Sepracor Inc., priority 2001, dated 2006) can be followed below.

As usually defined, the IC50 is the concentration that gives 50% inhibition. Read a low IC50 as greater potency in that assay. One may read the Ki as a measure of affinity in units of concentration, obtained from inhibition or displacement.

Compound `CN1C[C@@H](NS(=O)(=O)N(C)C)C[C@@H]2c3cccc4c3c(cn4C)C[C@H]21` [[^3H]Mesulergine, Mesulergine, reference compound] yielded an IC50 of 0.74 nM and a Ki of 0.39 nM.
